Target: PRMT5/MEP50 protein complex (Homo sapiens (Human), UniProt O14744)
Test: PRMT5 biochemical assay (3H-SAM methylation of H4(1-21) peptide, filter plate scintillation)
Conditions: read-out: PRMT5 IC50; 10 nM PRMT5/MEP50 complex, 200 nM H4(1-21) peptide, 1 uM SAM, 25 minute incubation at room temperature

Amino acid sequences for entries named in this document (tags omitted). Chains listed by the source or under a name are the forms on record and can include a tag or linker. Residues count along the entry.
UniProt O14744, 2-637 with tags or gaps limits assumed: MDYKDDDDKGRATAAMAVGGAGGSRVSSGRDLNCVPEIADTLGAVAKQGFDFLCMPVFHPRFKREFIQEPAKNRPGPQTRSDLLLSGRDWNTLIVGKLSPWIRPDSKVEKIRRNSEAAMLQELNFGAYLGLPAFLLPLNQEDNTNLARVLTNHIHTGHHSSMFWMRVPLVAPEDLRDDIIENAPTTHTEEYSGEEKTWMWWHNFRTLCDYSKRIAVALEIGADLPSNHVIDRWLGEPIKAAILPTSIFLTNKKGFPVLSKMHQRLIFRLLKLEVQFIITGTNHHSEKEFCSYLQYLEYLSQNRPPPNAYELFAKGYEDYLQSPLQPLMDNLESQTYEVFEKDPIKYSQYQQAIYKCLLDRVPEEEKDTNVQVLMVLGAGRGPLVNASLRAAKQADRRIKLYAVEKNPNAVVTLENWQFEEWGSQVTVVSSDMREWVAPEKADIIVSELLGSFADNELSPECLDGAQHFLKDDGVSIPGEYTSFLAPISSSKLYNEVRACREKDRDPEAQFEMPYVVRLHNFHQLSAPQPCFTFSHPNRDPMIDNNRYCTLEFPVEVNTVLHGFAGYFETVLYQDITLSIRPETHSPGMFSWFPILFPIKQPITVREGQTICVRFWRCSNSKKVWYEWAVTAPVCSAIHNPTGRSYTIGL
UniProt Q9BQA1, whole entry partner: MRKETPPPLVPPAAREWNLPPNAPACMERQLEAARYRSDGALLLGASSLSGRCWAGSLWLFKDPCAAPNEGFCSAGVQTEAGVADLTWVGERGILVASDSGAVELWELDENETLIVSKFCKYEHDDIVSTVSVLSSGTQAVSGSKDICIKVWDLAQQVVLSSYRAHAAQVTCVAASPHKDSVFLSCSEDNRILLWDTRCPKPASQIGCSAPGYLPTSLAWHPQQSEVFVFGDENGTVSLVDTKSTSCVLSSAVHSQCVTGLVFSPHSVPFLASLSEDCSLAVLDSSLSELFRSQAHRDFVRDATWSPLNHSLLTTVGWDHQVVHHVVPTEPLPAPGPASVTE

IC50: 28 nM
SMILES: Nc1ncnc2c1c(F)cn2[C@@H]1C[C@H](Oc2cccc3c2CCNC3)[C@@H](O)[C@H]1O
